# Measured affinities in a library of Ab-91 heavy chain variants

Source: Engelhart et al. 2022 (doi:10.1038/s41597-022-01779-4), MIT Lincoln Laboratory and A-Alpha Bio; data file from the FLAb repository.

The target is the same throughout: PDVDLGDISGINAS, from the HR2 region of SARS-CoV-2 spike.

Each scFv is VL, the linker GGGGSGGGGSGGGGS, VH, as in the parent Ab-91, and differs from it in the CDRs of the heavy chain only.
VL: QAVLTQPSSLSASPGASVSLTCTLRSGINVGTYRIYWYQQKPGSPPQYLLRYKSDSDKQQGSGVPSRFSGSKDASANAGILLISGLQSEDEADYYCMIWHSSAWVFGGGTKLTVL
VH: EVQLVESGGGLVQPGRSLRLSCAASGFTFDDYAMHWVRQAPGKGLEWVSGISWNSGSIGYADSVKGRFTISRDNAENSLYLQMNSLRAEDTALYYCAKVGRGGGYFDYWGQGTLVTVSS

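Phage display of a naive human antibody library on the peptide gave the parent. The library (AAYL51) carries one to three amino acid substitutions per variant, with no insertions or deletions. In AlphaSeq, yeast of one mating type display the scFv and yeast of the other type display the target. Binding brings cells together so that they mate, and sequencing counts the barcode pairs among the diploids. The ratio of observed to expected reads was calibrated, replicate by replicate, on BCL2-family standards whose Kd was known from biolayer interferometry. There are three technical replicates.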

Changes read parent residue, position, new residue, counted from the first residue of the VH shown. Numbers give log10(Kd / nM), so 0 is 1 nM and 3 is 1 µM. Smaller is tighter. Averages over replicates are reported, and they cover detected replicates only. "ND" means that the variant was in the library but no mating with the target was seen in that replicate; the authors take this as a sign of poor binding, and no number exists.

{"changes": "I51T Y60N Y108A", "replicates, log10 nM": "ND ND ND", "mean, log10 nM": "ND", "empty controls": "0 of 9"}
{"changes": "M34W S57K Y60P", "replicates, log10 nM": "ND ND ND", "mean, log10 nM": "ND", "empty controls": "4 of 9 (4.65)"}
{"changes": "G26D V64Q D107H", "replicates, log10 nM": "ND ND ND", "mean, log10 nM": "ND", "empty controls": "0 of 9"}
{"changes": "S63P V64A", "replicates, log10 nM": "2.49 ND ND", "mean, log10 nM": "2.49", "empty controls": "0 of 9"}
{"changes": "I58G A61G V64R", "replicates, log10 nM": "5.16 6.45 ND", "mean, log10 nM": "5.80", "empty controls": "2 of 9 (4.52)"}
{"changes": "D31N Y32K I51N", "replicates, log10 nM": "ND ND ND", "mean, log10 nM": "ND", "empty controls": "0 of 9"}
{"changes": "H35W Y105G", "replicates, log10 nM": "4.68 4.82 5.25", "mean, log10 nM": "4.92", "empty controls": "7 of 9 (5.27)"}
{"changes": "S55F D62P Y105Q", "replicates, log10 nM": "5.24 6.36 ND", "mean, log10 nM": "5.80", "empty controls": "3 of 9 (4.56)"}
{"changes": "I51T S57W G103R", "replicates, log10 nM": "3.95 ND ND", "mean, log10 nM": "3.95", "empty controls": "3 of 9 (4.14)"}
{"changes": "Y32V Y60I D62Q", "replicates, log10 nM": "ND 3.81 6.05", "mean, log10 nM": "4.93", "empty controls": "8 of 9 (5.29)"}
{"changes": "F29P V99H", "replicates, log10 nM": "ND ND ND", "mean, log10 nM": "ND", "empty controls": "1 of 9 (4.29)"}
{"changes": "V99F G102W G104Q", "replicates, log10 nM": "ND ND ND", "mean, log10 nM": "ND", "empty controls": "0 of 9"}
{"changes": "W53T G102R", "replicates, log10 nM": "2.25 2.34 1.61", "mean, log10 nM": "2.07", "empty controls": "3 of 9 (3.66)"}
{"changes": "N54M S55Y Y60H", "replicates, log10 nM": "ND ND ND", "mean, log10 nM": "ND", "empty controls": "3 of 9 (5.55)"}
{"changes": "G59S D62N V99N", "replicates, log10 nM": "4.09 4.67 ND", "mean, log10 nM": "4.38", "empty controls": "2 of 9 (4.88)"}
{"changes": "Y32L I51T A61H", "replicates, log10 nM": "ND ND ND", "mean, log10 nM": "ND", "empty controls": "0 of 9"}
{"changes": "T28N Y60S", "replicates, log10 nM": "3.26 2.79 ND", "mean, log10 nM": "3.03", "empty controls": "0 of 9"}
{"changes": "G26W W53D G56D", "replicates, log10 nM": "5.57 5.83 5.61", "mean, log10 nM": "5.67", "empty controls": "5 of 9 (4.89)"}
{"changes": "A33C S55N V64D", "replicates, log10 nM": "4.29 6.11 ND", "mean, log10 nM": "5.20", "empty controls": "4 of 9 (4.38)"}
{"changes": "G26V M34E W53N", "replicates, log10 nM": "5.75 ND ND", "mean, log10 nM": "5.75", "empty controls": "0 of 9"}
{"changes": "Y60E R101I", "replicates, log10 nM": "ND ND ND", "mean, log10 nM": "ND", "empty controls": "2 of 9 (3.42)"}

Top 3 of the variants detected in all replicates, tightest first:

changes	replicates, log10 nM	mean, log10 nM	empty controls
W53T G102R	2.25 2.34 1.61	2.07	3 of 9 (3.66)
H35W Y105G	4.68 4.82 5.25	4.92	7 of 9 (5.27)
G26W W53D G56D	5.57 5.83 5.61	5.67	5 of 9 (4.89)

Three control strains display no target. For library AAYL51, 21% of the pairings with them gave a signal, with a median of 4.54 and one signal in twenty below 3.26, so weak values seen in few replicates may be background. Also given: how often the same scFv was detected with the empty control strains, with their mean in brackets. For reference, the parent read 1.86 as the reference entry and 0.88 as a member of this library.